In ChEMBL document CHEMBL1151884, “Nuclease resistant methylphosphonate-DNA/LNA chimeric oligonucleotides” (2009) one finds Stability data, which are given here for six compounds.

Each structure is given as a SMILES string.

The nature of this data set: Stability assessed as degradation in presence of snake venom phosphodiesterase.
With `Cc1cn([C@@H]2O[C@@]3(COP(=O)(O)O[C@H]4C[C@H](n5cnc6c(N)ncnc65)O[C@@H]4COP(=O)(O)O[C@H]4C[C@H](n5cnc6c(=O)[nH]c(N)nc65)O[C@@H]4COP(=O)(O)O[C@H]4[C@H]5OC[C@]4(COP(=O)(O)O[C@H]4C[C@H](n6cnc7c(=O)[nH]c(N)nc76)O[C@@H]4CO)O[C@H]5n4cc(C)c(=O)[nH]c4=O)CO[C@@H]2[C@@H]3OP(=O)(O)OC[C@H]2O[C@@H](n3cnc4c(N)ncnc43)C[C@@H]2OP(=O)(O)OC[C@@]23CO[C@@H]([C@H](n4cc(C)c(=O)[nH]c4=O)O2)[C@@H]3OP(=O)(O)OC[C@H]2O[C@@H](n3cnc4c(=O)[nH]c(N)nc43)C[C@@H]2OP(=O)(O)OC[C@H]2O[C@@H](n3ccc(N)nc3=O)C[C@@H]2O)c(=O)[nH]c1=O`, the Stability entry was “Stable”.

As for `Cc1cn([C@@H]2O[C@@]3(COP(C)(=O)O[C@H]4C[C@H](n5cnc6c(N)ncnc65)O[C@@H]4COP(=O)(O)O[C@H]4[C@H]5OC[C@]4(COP(=O)(O)O[C@H]4C[C@H](n6cnc7c(N)ncnc76)O[C@@H]4COP(C)(=O)O[C@H]4C[C@H](n6cnc7c(=O)[nH]c(N)nc76)O[C@@H]4COP(=O)(O)O[C@H]4[C@H]6OC[C@]4(COP(=O)(O)O[C@H]4C[C@H](n7cnc8c(=O)[nH]c(N)nc87)O[C@@H]4CO)O[C@H]6n4cc(C)c(=O)[nH]c4=O)O[C@H]5n4cc(C)c(=O)[nH]c4=O)CO[C@@H]2[C@@H]3OP(=O)(O)OC[C@H]2O[C@@H](n3cnc4c(=O)[nH]c(N)nc43)C[C@@H]2OP(=O)(O)OC[C@H]2O[C@@H](n3ccc(N)nc3=O)C[C@@H]2O)c(=O)[nH]c1=O` (stereo partly specified), the Stability result is recorded as “Stable”.

In the case of `Cc1cn([C@@H]2O[C@@]3(COP(C)(=O)O[C@H]4C[C@H](n5cnc6c(N)ncnc65)O[C@@H]4COP(C)(=O)O[C@H]4C[C@H](n5cnc6c(=O)[nH]c(N)nc65)O[C@@H]4COP(=O)(O)O[C@H]4[C@H]5OC[C@]4(COP(C)(=O)O[C@H]4C[C@H](n6cnc7c(=O)[nH]c(N)nc76)O[C@@H]4CO)O[C@H]5n4cc(C)c(=O)[nH]c4=O)CO[C@@H]2[C@@H]3OP(=O)(O)OC[C@H]2O[C@@H](n3cnc4c(N)ncnc43)C[C@@H]2OP(C)(=O)OC[C@@]23CO[C@@H]([C@H](n4cc(C)c(=O)[nH]c4=O)O2)[C@@H]3OP(=O)(O)OC[C@H]2O[C@@H](n3cnc4c(=O)[nH]c(N)nc43)C[C@@H]2OP(C)(=O)OC[C@H]2O[C@@H](n3ccc(N)nc3=O)C[C@@H]2O)c(=O)[nH]c1=O` (stereo partly specified), the Stability entry is reported as “Stable”.

In the case of `Cc1cn([C@H]2C[C@H](OP(=O)(O)OC[C@H]3O[C@@H](n4cnc5c(N)ncnc54)C[C@@H]3OP(C)(=O)OC[C@H]3O[C@@H](n4cc(C)c(=O)[nH]c4=O)C[C@@H]3OP(=O)(O)OC[C@H]3O[C@@H](n4cnc5c(=O)[nH]c(N)nc54)C[C@@H]3OP(C)(=O)OC[C@H]3O[C@@H](n4ccc(N)nc4=O)C[C@@H]3O)[C@@H](COP(C)(=O)O[C@H]3C[C@H](n4cnc5c(N)ncnc54)O[C@@H]3COP(C)(=O)O[C@H]3C[C@H](n4cnc5c(=O)[nH]c(N)nc54)O[C@@H]3COP(=O)(O)O[C@H]3C[C@H](n4cc(C)c(=O)[nH]c4=O)O[C@@H]3COP(C)(=O)O[C@H]3C[C@H](n4cnc5c(=O)[nH]c(N)nc54)O[C@@H]3CO)O2)c(=O)[nH]c1=O` (stereo partly specified), the Stability entry is listed as “Stable”.

`Cc1cn([C@H]2C[C@H](OP(=O)(O)OC[C@H]3O[C@@H](n4cnc5c(=O)[nH]c(N)nc54)C[C@@H]3OP(=O)(O)OC[C@H]3O[C@@H](n4ccc(N)nc4=O)C[C@@H]3O)[C@@H](COP(C)(=O)O[C@H]3C[C@H](n4cnc5c(N)ncnc54)O[C@@H]3COP(=O)(O)O[C@H]3C[C@H](n4cc(C)c(=O)[nH]c4=O)O[C@@H]3COP(=O)(O)O[C@H]3C[C@H](n4cnc5c(N)ncnc54)O[C@@H]3COP(C)(=O)O[C@H]3C[C@H](n4cnc5c(=O)[nH]c(N)nc54)O[C@@H]3COP(=O)(O)O[C@H]3C[C@H](n4cc(C)c(=O)[nH]c4=O)O[C@@H]3COP(=O)(O)O[C@H]3C[C@H](n4cnc5c(=O)[nH]c(N)nc54)O[C@@H]3CO)O2)c(=O)[nH]c1=O` (stereo partly specified): the Stability entry is on record as “Stable”.

`Cc1cn([C@H]2C[C@H](OP(=O)(O)OC[C@H]3O[C@@H](n4cnc5c(=O)[nH]c(N)nc54)C[C@@H]3OP(=O)(O)OC[C@H]3O[C@@H](n4ccc(N)nc4=O)C[C@@H]3O)[C@@H](COP(=O)(O)O[C@H]3C[C@H](n4cnc5c(N)ncnc54)O[C@@H]3COP(=O)(O)O[C@H]3C[C@H](n4cc(C)c(=O)[nH]c4=O)O[C@@H]3COP(=O)(O)O[C@H]3C[C@H](n4cnc5c(N)ncnc54)O[C@@H]3COP(=O)(O)O[C@H]3C[C@H](n4cnc5c(=O)[nH]c(N)nc54)O[C@@H]3COP(=O)(O)O[C@H]3C[C@H](n4cc(C)c(=O)[nH]c4=O)O[C@@H]3COP(=O)(O)O[C@H]3C[C@H](n4cnc5c(=O)[nH]c(N)nc54)O[C@@H]3CO)O2)c(=O)[nH]c1=O`: the Stability entry was “Stable”.
